In US20250319292A1, “MICRONEEDLES AND METHODS FOR TREATING THE SKIN” (THE BRIGHAM AND WOMEN'S HOSPITAL, INC., priority 2021, published 2025):

Tests used:
[1] = Chemokine release kinetics (labeled IL-2 from HA-based MNs); type: physicochemical
Description: Recombinant human IL-2 was fluorescently labeled with the Lightning-Link® Rapid Alexa Fluor®594 kit (Novus Biologicals, USA) following the manufacturer's instructions. Release studies were conducted with HA-based MNs loaded with labeled IL-2. IL-2-loaded, HA-based MNs were placed in Eppendorf Tubes®, immersed with phosphate buffered saline (PBS) (1 mL), and incubated under rotation at 37° C. 100 μL of PBS was replaced at predetermined time point, and IL-2 fluorescence was assessed by checking the fluorescence at 650-665 nm using a microplate reader.
(§1) The efficient release delivery of cytokines from the MNs was initially studied using fluorescently labeled IL-2. […] To validate this hypothesis, the interaction with the cytokine was blocked by treating the hydrogel with an end-capping agent, the amino acid glycine, whose amino-end groups would preferentially interact with the crosslinker's non-reacted NHS-terminal groups.

[2] = HA-based MNs loading capacity (labeled IL-2); type: physicochemical; conditions: fluorescence quantification
Description: HA-based MNs were loaded with labeled IL-2 concentrations. IL-2-loaded MNs were digested as described above, and IL-2 loading capacity was assessed by checking the IL-2 fluorescence at 650-665 nm using a microplate reader.
as §1

IL-2: recombinant human IL-2, fluorescently labeled, loaded in HA-based MNs as drug model
IL-2 release from MNs without end-capping ([1]; PBS 37° C., no glycine end-capping): no IL-2 was released | cytokine released from end-capped hydrogel MNs ([1]; glycine end-capping, within the first 30 minutes): more than 80% | relation of loaded and retrieved IL-2 after digestion of MN patches [2]: linear correlation
